The data set has as its system Nc1ncnc2c1ncn2[C@@H]1O[C@H](CO)[C@@H](O)[C@H]1O. The data set is described as follows: cells, lysate or membranes. To be noted: other: TvagENT3 in SUPKO, 50 nM [^3H]-adenosine, n = 3.

Data on one substance can be found in paper PMC9331716, “Nucleoside Transport and Nucleobase Uptake Null Mutants in Leishmania mexicana for the Routine Expression and Characterization of Purine and Pyrimidine Transporters” (International Journal of Molecular Sciences, 2022).

In the case of TvagENT3 (Trichomonas vaginalis G3), the Michaelis constant (Km) stood at 0.90 ± 0.13 µM.
